This is an account of results in patent US11014933B2 (priority 2018, dated 2021).

The test has as its target KOR (Homo sapiens, UniProt P41145). The test can be described thus: Competition radioligand binding, KOR ([3H]diprenorphine). Particulars: ratio of Ki KOR to Ki MOR.

With `O=C(N[C@@H]1CC[C@@]2(O)[C@H]3Cc4ccc(O)c5c4[C@@]2(CCN3CC2CC2)[C@H]1O5)c1ccncc1F` [Compound 1], the Selectivity κ/μ is 13.3.
